Test results as given in US5080884A, “Hydrocarbylphenyl diaminodithiol radionuclide complexes and their use in imaging” (Medi-Physics, Inc., priority 1991, dated 1992).

Legend:
[1] = Electrophoresis of Tc-99m complex (NaH2PO4, pH 4.5); format: physicochemical; conditions: 0.05 M NaH2PO4, pH 4.5, 300 volts
[2] = Biological distribution of Tc-99m complexes in rats (pentobarbital anesthesia); format: in vivo, Female Sprague-Dawley rats; conditions: average of 2 rats; for Blood, % Injected Dose/Gram Tissue / Brain, % Injected Dose/Gram Tissue / Heart, % Injected Dose/Gram Tissue: pentobarbital anesthesia; for Brain:Blood / Heart:Blood: ratio
Procedure: Distribution of the Tc-99m labeled compounds was evaluated in rats. Female Sprague-Dawley rats weighing 140 to 220 g (average 170 g) were anesthetized with sodium pentobarbital and were injected in a tail vein with from 0.05 to 10 mCi of the Tc-99m labeled complex in a volume of 0.2 to 0.5 ml. At least two rats were injected for each time point.
The animals were sacrificed at 5 and 30 minutes after injection and selected organs were removed; the tails were discharged to avoid interference from the injection site. The radioactivity in each organ was measured at a standard geometry with a […] sodium iodide scintillation detector adjusted for the 140 KeV emission of Tc-99m. The organs were also weighed to one hundredth of a gram and the activity was calculated as a percent of administered dose per gram.

[3] = 5 min after i.v. (tail vein) injection
[4] = 30 min after i.v. (tail vein) injection

| Substance | Electrophoresis ([1]; 30 min) | Blood, % Injected Dose/Gram Tissue [2, 3] | Brain, % Injected Dose/Gram Tissue [2, 3] | Heart, % Injected Dose/Gram Tissue [2, 3] | Blood, % Injected Dose/Gram Tissue [2, 4] | Brain, % Injected Dose/Gram Tissue [2, 4] | Heart, % Injected Dose/Gram Tissue [2, 4] | Brain:Blood ([2]; 5 min after i.v. injection) | Heart:Blood ([2]; 5 min after i.v. injection) | Brain:Blood ([2]; 30 min after i.v. injection) | Heart:Blood ([2]; 30 min after i.v. injection) | Electrophoresis ([1]; 45 min) |
| --- | --- | --- | --- | --- | --- | --- | --- | --- | --- | --- | --- | --- |
| Tc-99m complex of 1-(2-Allylthio-2-methylpropylamino]-2-(2-mercapto-2-methylpropylamino) benzene [Example 15] | neutral | 0.27 % Injected Dose/Gram Tissue | 0.99 % Injected Dose/Gram Tissue | 4.37 % Injected Dose/Gram Tissue | 0.13 % Injected Dose/Gram Tissue | 0.75 % Injected Dose/Gram Tissue | 2.25 % Injected Dose/Gram Tissue | 3.61 | 15.97 | 5.63 | 16.77 | – |
| Tc-99m complex of 1-(2-vinylthio-2-methylpropylamino)-2-(2-mercapto-2-methylpropylamino)benzene [Example 48] | neutral | 0.61 % Injected Dose/Gram Tissue | 0.56 % Injected Dose/Gram Tissue | 3.51 % Injected Dose/Gram Tissue | 0.30 % Injected Dose/Gram Tissue | 0.57 % Injected Dose/Gram Tissue | 3.05 % Injected Dose/Gram Tissue | 0.92 | 5.75 | 1.92 | 10.32 | – |
| Tc-99m complex of 1-[2-(2-methyl-2-propenylthio)-2-methylpropylamino]-2-(2-mercapto-2-methylpropylamino)benzene [Example 45] | neutral | 0.30 % Injected Dose/Gram Tissue | 0.60 % Injected Dose/Gram Tissue | 3.40 % Injected Dose/Gram Tissue | 0.19 % Injected Dose/Gram Tissue | 0.55 % Injected Dose/Gram Tissue | 2.24 % Injected Dose/Gram Tissue | 2.01 | 11.40 | 2.90 | 11.81 | – |
| Tc-99m complex of 1-[2-(3-butenylthio)-2-methylpropylamino]-2-(2-mercapto-2-methylpropylamino)benzene [Example 19] | – | 0.36 % Injected Dose/Gram Tissue | 0.80 % Injected Dose/Gram Tissue | 3.40 % Injected Dose/Gram Tissue | 0.18 % Injected Dose/Gram Tissue | 0.69 % Injected Dose/Gram Tissue | 1.52 % Injected Dose/Gram Tissue | 2.20 | – | 3.76 | 8.30 | – |
| Tc-99m complex of 1-[2-(trans-2-butenylthio)-2-methylpropylamino]-2-(2-mercapto-2-methylpropylamino) benzene [Example 11] | – | 0.26 % Injected Dose/Gram Tissue | 0.50 % Injected Dose/Gram Tissue | 2.40 % Injected Dose/Gram Tissue | 0.19 % Injected Dose/Gram Tissue | 0.49 % Injected Dose/Gram Tissue | 1.13 % Injected Dose/Gram Tissue | 1.94 | 9.29 | 2.58 | 6.01 | neutral |
| Tc-99m complex of 1-[2-cyclopropylmethylthio-2-methylpropylamino)-2-(2-mercapto-2-methyl-propylamino) benzene [Example 57] | – | 0.20 % Injected Dose/Gram Tissue | 0.54 % Injected Dose/Gram Tissue | 2.12 % Injected Dose/Gram Tissue | 0.11 % Injected Dose/Gram Tissue | 0.47 % Injected Dose/Gram Tissue | 0.86 % Injected Dose/Gram Tissue | 2.63 | 10.34 | 4.18 | 7.68 | neutral |
| Tc-99m complex of 1-[2-methylthio-2-methylpropylamino]-2-(2-mercapto-2-methylpropylamino)benzene [Example 44] | neutral | 0.12 % Injected Dose/Gram Tissue | 0.78 % Injected Dose/Gram Tissue | 1.48 % Injected Dose/Gram Tissue | 0.07 % Injected Dose/Gram Tissue | 0.44 % Injected Dose/Gram Tissue | 0.50 % Injected Dose/Gram Tissue | 6.46 | 12.16 | 6.19 | 7.12 | – |
| Tc-99m complex of 2-(2-Mercapto-2-methylpropylamino)-1-[2-(1-methylethylthio)-2-methylpropylamino]benzene [Example 38] | – | 0.34 % Injected Dose/Gram Tissue | 0.73 % Injected Dose/Gram Tissue | 2.48 % Injected Dose/Gram Tissue | 0.27 % Injected Dose/Gram Tissue | 0.67 % Injected Dose/Gram Tissue | 1.04 % Injected Dose/Gram Tissue | 2.13 | 7.22 | 2.44 | 3.78 | – |
| Tc-99m complex of 2-(2-butylthio)2-methylpropylamino)-1-(2-mercapto-2-methylpropylamino)benzene [Example 43] | neutral | 0.81 % Injected Dose/Gram Tissue | 0.41 % Injected Dose/Gram Tissue | 2.02 % Injected Dose/Gram Tissue | 0.35 % Injected Dose/Gram Tissue | 0.43 % Injected Dose/Gram Tissue | 0.96 % Injected Dose/Gram Tissue | 0.51 | 2.50 | 1.24 | 2.77 | – |
| Tc-99m complex of 2-(2-mercapto-2-methylpropylamino)-1-[2-(1-methylpropylthio)-2-methylpropylamino)benzene [Example 46] | – | 0.23 % Injected Dose/Gram Tissue | 0.64 % Injected Dose/Gram Tissue | 2.96 % Injected Dose/Gram Tissue | 0.15 % Injected Dose/Gram Tissue | 0.57 % Injected Dose/Gram Tissue | 1.28 % Injected Dose/Gram Tissue | 2.81 | 12.94 | 3.71 | 8.35 | neutral |
